Source: PMC4575208, “Characterization of Flavin-Containing Opine Dehydrogenase from Bacteria” (PLoS ONE, 2015)

Chains of the proteins cited; added tags and fusions are not shown.
UniProt Q88EK5, entry or part of it: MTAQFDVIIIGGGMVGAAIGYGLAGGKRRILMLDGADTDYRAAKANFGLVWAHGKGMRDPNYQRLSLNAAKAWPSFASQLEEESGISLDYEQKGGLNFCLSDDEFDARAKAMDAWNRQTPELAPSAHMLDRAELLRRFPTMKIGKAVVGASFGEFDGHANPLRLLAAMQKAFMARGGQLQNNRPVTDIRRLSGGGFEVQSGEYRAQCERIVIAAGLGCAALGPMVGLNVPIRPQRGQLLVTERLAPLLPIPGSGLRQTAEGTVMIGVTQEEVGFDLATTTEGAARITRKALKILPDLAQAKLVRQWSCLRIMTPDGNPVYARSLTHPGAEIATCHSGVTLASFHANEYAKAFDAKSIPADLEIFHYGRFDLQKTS
UniProt Q88EK6, entry or part of it: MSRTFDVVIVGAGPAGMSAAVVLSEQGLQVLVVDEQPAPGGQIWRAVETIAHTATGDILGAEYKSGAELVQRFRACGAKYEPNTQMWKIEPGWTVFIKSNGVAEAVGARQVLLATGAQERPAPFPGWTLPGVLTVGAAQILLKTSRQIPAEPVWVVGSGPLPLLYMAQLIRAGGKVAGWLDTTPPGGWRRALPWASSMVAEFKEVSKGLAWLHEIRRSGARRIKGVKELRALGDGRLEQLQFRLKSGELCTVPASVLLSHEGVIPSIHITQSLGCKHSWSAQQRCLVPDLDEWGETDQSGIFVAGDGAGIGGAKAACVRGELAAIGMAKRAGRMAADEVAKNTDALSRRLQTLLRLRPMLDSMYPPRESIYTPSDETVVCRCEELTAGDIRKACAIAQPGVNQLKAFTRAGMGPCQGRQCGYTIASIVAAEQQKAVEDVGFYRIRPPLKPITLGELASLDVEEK

Tests used:
[1] = target: T1, PpOdhB (beta-subunit of PpOpnDH) (Pseudomonas putida, UniProt Q88EK5)
T1 construct: gene ooxB

[2] = target: T2, PpOdhA (alpha-subunit of PpOpnDH) (Pseudomonas putida, UniProt Q88EK6)
T2 construct: gene ooxA

Cc1cc2nc3c(=O)[nH]c(=O)nc-3n(C[C@H](O)[C@H](O)[C@H](O)COP(=O)(O)OP(=O)(O)OC[C@H]3O[C@@H](n4cnc5c(N)ncnc54)[C@H](O)[C@@H]3O)c2cc1C [FAD]
co-purified flavin released by heat denaturation and identified by HPLC; absorpt [1]: Only FAD was extracted from (almost) inactive OdhA, OdhB, OdhAB (co-expression of OdhA+B), OdhBC, and OdhAC
co-purified flavin released by heat denaturation and identified by HPLC; absorpt [2]: Only FAD was extracted from (almost) inactive OdhA, OdhB, OdhAB (co-expression of OdhA+B), OdhBC, and OdhAC
